According to patent US7109310B2:
In brackets after ≈: the same amount, converted by molar mass. Only a part of the results on these compounds is given; other tests are left out.

Assays:
[1] = system: IgG fraction of the antiserum raised to Immunogen A (Hapten A-BSA); assay: Competitive ELISA microtiter plate assay, antiserum to immunogen A with conjugate G (hapten G-HRP); settings: for A450: absorbance at 450 nm
[2] = system: IgG fraction of the antiserum raised to Immunogen A (Hapten A-BSA); assay: Competitive ELISA microtiter plate assay, antiserum to immunogen A with conjugate B (hapten B-HRP); settings: for A450: absorbance at 450 nm
[3] = system: IgG fraction of the antiserum raised to immunogen C (hapten C-BSA); assay: Competitive ELISA microtiter plate assay, antiserum to immunogen C with conjugate E (hapten E-HRP); settings: for A450: absorbance at 450 nm
[4] = in man, within 72 hours; cited from earlier work
[5] = standard concentration 0.05 ng/ml
[6] = standard concentration 0.1 ng/ml
[7] = standard concentration 0.5 ng/ml
[8] = standard concentration 25 ng/ml
[9] = standard concentration 250 ng/ml
[10] = standard concentration which produces 50% B/B0

In the case of `CCC(=O)N(c1ccccc1)C1CCN(CCc2ccccc2)CC1`, the “% B/B0” value [1, 5] is reported as 97.09%, the A450 [1, 5] is reported as 1.94 and the “% B/B0” value [1, 6] is reported as 97.54%. The A450 [1, 6] was 1.94, the “% B/B0” value [1, 7] was 85.9% and the A450 [1, 7] was 1.71. For the same compound, the “% B/B0” value ([1]; standard concentration 1 ng/ml) was 73.66%, the A450 ([1]; standard concentration 1 ng/ml) was 1.47 and the “% B/B0” value ([1]; standard concentration 5 ng/ml) was 19.97%. The A450 ([1]; standard concentration 5 ng/ml) was 0.4, the “% B/B0” value [1, 8] was 3.54% and the A450 [1, 8] was 0.07. For the same compound, the “% B/B0” value [1, 9] was 1.43%, the A450 [1, 9] was 0.03 and the IC50 [1, 10] was 2.03 ng/mL (≈ 6.03 nM). For the same compound, the “% B/B0” value [2, 5] was 90.15%, the A450 [2, 5] was 2.07 and the “% B/B0” value [2, 6] was 80.2%. For the same compound, the A450 [2, 6] was 1.84, the “% B/B0” value [2, 7] was 54.91% and the A450 [2, 7] was 1.26. For the same compound, the “% B/B0” value ([2]; standard concentration 1 ng/ml) was 38.01%, the A450 ([2]; standard concentration 1 ng/ml) was 0.87 and the A450 ([2]; standard concentration 5 ng/ml) was 0.27. For the same compound, the “% B/B0” value [2, 8] was 3.68%, the A450 [2, 8] was 0.08 and the “% B/B0” value [2, 9] was 3.53%. The A450 [2, 9] was 0.08, the IC50 [2, 10] was 0.61 ng/mL (≈ 1.81 nM) and the “% B/B0” value [3, 5] was 82.2%. For the same compound, the A450 [3, 5] was 1.9, the “% B/B0” value [3, 6] was 68.2% and the A450 [3, 6] was 1.6. For the same compound, the “% B/B0” value [3, 7] was 34.4%, the A450 [3, 7] was 0.8 and the “% B/B0” value ([3]; standard concentration 1 ng/ml) was 23.4%. The A450 ([3]; standard concentration 1 ng/ml) was 0.5, the “% B/B0” value ([3]; standard concentration 5 ng/ml) was 8.4% and the A450 ([3]; standard concentration 5 ng/ml) was 0.2. For the same compound, the “% B/B0” value [3, 8] was 2.8%, the A450 [3, 8] was 0.1 and the “% B/B0” value [3, 9] was 1.0%. For the same compound, the A450 [3, 9] was 0.0, the IC50 [3, 10] was 0.24 ng/mL (≈ 0.713 nM) and the “fentanyl dose excreted in urine” value [4] was “approximately 80%”.
